Literature values in patent US20060058225A1, “Used of inhibitors of phospholipase a2 for the treatment, prevention or diagnosis of neural inflammatory or demyelinating disease” (McGill University, priority 2002, published 2006).

System: EAE
Conditions: mice

B1: IFNβ: interferon beta (protein, UniProt P01574 22-187, looked up)
Interferon beta: MSYNLLGFLQRSSNFQCQKLLWQLNGRLEYCLKDRMNFDIPEEIKQLQQFQKEDAALTIYEMLQNIFAIFRQDSSSTGWNETIVENLLANVYHQINHLKTVLEEKLEKEDFTRGKLMSSLHLKRYYGRILHYLKAKEYSHCAWTIVRVEILRNFYFINRLTGYLRN
- relapse/mouse (controls 2.17): 1.17
- mean clinical score, start of course (controls 3.5): 3.0
- mean clinical score, end of course (controls 3.8): 2.5
